IC50 data for 17 compounds are collected here from US20240109900A1, “AZABICYCLIC SHP2 INHIBITORS” (IRBM S.P.A., priority 2021, published 2024).

Sequences of proteins named here, by UniProt entry; tags and fusion partners are left off. Residues count along the entry.
UniProt Q06124, 1-525 limits assumed: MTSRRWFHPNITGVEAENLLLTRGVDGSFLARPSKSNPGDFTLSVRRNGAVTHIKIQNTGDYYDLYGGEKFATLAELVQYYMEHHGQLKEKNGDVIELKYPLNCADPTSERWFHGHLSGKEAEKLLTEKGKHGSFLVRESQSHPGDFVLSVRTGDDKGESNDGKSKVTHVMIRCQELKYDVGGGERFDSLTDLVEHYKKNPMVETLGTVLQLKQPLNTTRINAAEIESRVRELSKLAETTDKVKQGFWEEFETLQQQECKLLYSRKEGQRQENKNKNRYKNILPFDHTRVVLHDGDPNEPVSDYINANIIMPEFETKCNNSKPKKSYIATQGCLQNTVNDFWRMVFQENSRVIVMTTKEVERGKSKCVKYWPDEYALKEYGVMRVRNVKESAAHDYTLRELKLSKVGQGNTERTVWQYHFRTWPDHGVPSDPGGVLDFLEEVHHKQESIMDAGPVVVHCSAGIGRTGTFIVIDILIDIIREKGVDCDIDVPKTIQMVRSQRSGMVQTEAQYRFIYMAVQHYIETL

In experiment [1] the test system is ERK phosphorylation in KYSE-520 cells. Kind of experiment: Phospho-ERK cellular assay. It counts as cell-based. The following applies: read-out: PERK IC50, 2 h at 37° C., phospho-ERK1/2 (Thr202/Tyr204) TR-FRET, tested form: TFA. As for the experimental part: ERK phosphorylation was detected using the “Advanced phospho-ERK1/2 (Thr202/Tyr204)” TR-FRET kit (Cisbio, Cat #64AERPEG/H), following the manufacturer reagents and instructions.
Briefly, 20.000/well KYSE-520 cells (DSMZ ACC 371) were plated in 6 μL RPMI-1640 (Invitrogen) growth medium, into 384 white low-volume high base TC microplates (Greiner). After an overnight incubation, cells were treated with DMSO serial diluted compounds and incubated for 2 h at 37° C. After incubation, 2 μL/well of 4×Lysis Buffer (Cisbio 64KL1FDF), were added and incubated with cells for 30 min on gentle shaking. Finally, lysates were added with 2 μL/well of Eu cryptate (donor) and D2 (acceptor) conjugated antibodies (as provided by the Cisbio kit #64AERPEG/H) diluted 1:100 in Detection Buffer (as provided by the Cisbio kit #64AERPEG/H). Plates were then sealed and incubated at room temperature in the dark. After an overnight incubation, the TR-FRET signal was detected on a suitable reader (Envision, PerkinElmer). The lower the TR-FRET signal the higher the higher the SHP2 inhibition in cells.
The activity of each compound dilution was calculated as percentage between vehicle DMSO treated cells and no cells, 0% inhibition and 100% inhibition respectively. The percentage activity is fitted against the compound dilutions with a four-parameter logistic regression. The inflection point (i.e. the concentration at which half-maximal inhibition is achieved) is the IC50.
(TR-FRET usually uses a lanthanide donor and a delayed reading to cut background.)

The target in experiment [2] is SHP-2 enzyme (Met1-Leu525) (Homo sapiens (Human), UniProt Q06124). Kind of experiment: SHP2 inhibition enzymatic assay. To be noted: read-out: SHP2wt-IC50; 0.5 nM SHP-2 activated by 500 nM IRS1 peptide, 75 μM DiFMUP substrate; tested form: TFA. It counts as biochemical.

Regarding `Cc1csc([C@@]2(CN)[C@@H]3CN(c4cnc5c(-c6ccnc(C)c6F)n[nH]c5n4)C[C@@H]32)n1`, the IC50 in experiment [1] is below 1 µM.

In the case of `Cn1ccc2cc(-c3n[nH]c4nc(N5CC[C@@H]6[C@H](C5)[C@@]6(CN)c5ccccc5F)cnc34)ccc2c1=O`, the IC50 in experiment [1] is below 1 µM; in experiment [2], below 0.5 µM.

Turning to `Cc1csc([C@@]2(CN)[C@@H]3CN(c4cnc5c(-c6ccc7c(c6)n(C)c(=O)n7C)n[nH]c5n4)C[C@@H]32)n1`, the IC50 was below 1 µM in experiment [1] and below 0.5 µM in experiment [2].

Consider `Cc1csc([C@@]2(CN)[C@@H]3CN(c4cnc5c(-c6ccc7c(c6)CC(=O)N7C)n[nH]c5n4)C[C@@H]32)n1`, for which, in experiment [1], the IC50 is below 1 µM.

With `Cc1csc([C@@]2(CN)[C@@H]3CN(c4cnc5c(-c6ccc7c(=O)[nH]ccc7c6)n[nH]c5n4)C[C@@H]32)n1`, the IC50 in experiment [1] is below 1 µM.

`Cn1cnc2ccc(-c3n[nH]c4nc(N5CC[C@@H]6[C@H](C5)[C@@]6(CN)c5ccccc5F)cnc34)cc21`: the values for the IC50 in experiment [1] and in experiment [2] were below 1 µM and below 0.5 µM, respectively.

In the case of `NC[C@]1(c2ccccc2F)[C@@H]2CCN(c3cnc4c(-c5ccc6ncn(C(F)F)c6c5)n[nH]c4n3)C[C@@H]21`, the IC50 was below 1 µM in experiment [1] and below 0.5 µM in experiment [2].

Turning to `Cc1csc([C@@]2(CN)[C@@H]3CN(c4cnc5c(-c6ccc7nn(C(F)F)cc7c6F)n[nH]c5n4)C[C@@H]32)n1`, the IC50 in experiment [1] is below 1 µM; in experiment [2] it was below 0.5 µM.

With `NC[C@]1(c2ccccc2F)[C@@H]2CCN(c3cnc4c(-c5ccc6c(=O)[nH]ccc6c5F)n[nH]c4n3)C[C@@H]21`, the values for the IC50 in experiment [1] and in experiment [2] were below 1 µM and below 0.5 µM, respectively.

Turning to `NC[C@]1(c2ccccc2F)[C@@H]2CCN(c3cnc4c(-c5ccc6nn(C(F)F)cc6c5F)n[nH]c4n3)C[C@@H]21`, the IC50 in experiment [1] was below 1 µM; in experiment [2], below 0.5 µM.

Take `NC[C@]1(c2ccccc2F)[C@@H]2CCN(c3cnc4c(-c5ccc6c(=O)[nH]cnc6c5)n[nH]c4n3)C[C@@H]21`: the IC50 in experiment [1] was below 1 µM; in experiment [2], below 0.5 µM.

On to `Cc1csc([C@@]2(CN)[C@@H]3CN(c4cnc5c(-c6ccc7c(=O)[nH]ccc7c6F)n[nH]c5n4)C[C@@H]32)n1`, for which the IC50 in experiment [1] is below 1 µM; in experiment [2] it was below 0.5 µM.

`NC[C@]1(c2ccccc2F)[C@@H]2CCN(c3cnc4c(-c5ccc6[nH]c(=O)sc6c5Cl)n[nH]c4n3)C[C@@H]21`: the IC50 was below 1 µM in experiment [1] and below 0.5 µM in experiment [2].

Regarding `NC[C@]1(c2ccccc2F)[C@@H]2CCN(c3cnc4c(-c5cccc6c5CCNC6=O)n[nH]c4n3)C[C@@H]21`, the IC50 in experiment [1] was below 1 µM; in experiment [2] it was below 0.5 µM.

Take `COCCn1ccc2c(F)c(-c3n[nH]c4nc(N5CC[C@@H]6[C@H](C5)[C@@]6(CN)c5ccccc5F)cnc34)ccc2c1=O`: the IC50 in experiment [1] was below 1 µM.

Consider `CC(=O)N1CCc2cc(-c3n[nH]c4nc(N5CC[C@@H]6[C@H](C5)[C@@]6(CN)c5ccccc5F)cnc34)ccc21`, for which the results for the IC50 in experiment [1] and in experiment [2] were below 1 µM and below 0.5 µM, respectively.

For the compound `NC[C@]1(c2ccccc2F)[C@@H]2CCN(c3cnc4c(-c5cnc6c(c5)CC(=O)N6)n[nH]c4n3)C[C@@H]21`, the IC50 in experiment [1] was below 1 µM; in experiment [2], below 0.5 µM.
